Test results as given in patent US20210017295A1, “BISPECIFIC BINDING AGENTS AND USES THEREOF” (MEMORIAL SLOAN KETTERING CANCER CENTER, priority 2018, published 2021).

Tested on: s.c. HER2(+) BT-474 tumors
Assay type: in vivo
Settings: BT-474 216 mm^3; PRIT, 55.5 MBq (~300 pmol); 24 h p.i.; single mouse

Nc1ccc(CC2CN(CC(=O)[O-])CCN(CC(=O)[O-])CCN(CC(=O)[O-])CCN2CC(=O)[O-])cc1.[177Lu+3] (stereo not shown) [^177Lu-DOTA-Bn]
activity concentration in tumor, imaged mouse: 6.06 % IA/g
